# From article PMC2821871 (Biochemistry, 2010)
# B1: Ub-ApoE(130-149) (peptide)
# chain: TEELRVRLASHLRKLRKRLL
# Target: LA3 of LDLR (human, UniProt P01130 109-147)
binder,measurement,value
B1,Kd,> 5 mM
